According to article PMC12557383, “Development of a Potent and Functional In Vivo Peptide Competitive Inhibitor for the Toxin MazF” (Journal of Medicinal Chemistry, 2025):

Experiments:
[1] = molecular target: T1, MazF_(E24A) (E. coli toxin MazF with glutamic acid 24 replaced with alanine, His6 tag removed) (E. coli, UniProt P0AE70 1-111, E24A); experiment: ITC; MazE (50 μM) in the syringe, 20 injections of 8 μL into 10 μM MazF_(E24A) in the cell; 50 mM NaHPO4 pH 7, 100 mM NaCl, 0.5 mM EDTA, 4 mM DTT; one set of sites model; details: both partners purified
T1 construct: For NMR the same construct was 15N or 15N/13C labelled; also called the toxin; source: E. coli BL21 (DE3) RIL, purified (Ni-NTA, TEV cleavage, second Ni-NTA, SEC); not shown: His6, N-terminal, cleaved
T1 sequence: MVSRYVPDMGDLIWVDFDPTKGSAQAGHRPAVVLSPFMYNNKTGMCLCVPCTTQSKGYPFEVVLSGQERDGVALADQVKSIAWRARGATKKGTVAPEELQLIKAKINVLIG

[2] = molecular target: T2, His^6-MazF (wild-type E. coli toxin MazF) (E. coli, UniProt P0AE70 1-111); experiment: cell-based or functional assay
T2 sequence: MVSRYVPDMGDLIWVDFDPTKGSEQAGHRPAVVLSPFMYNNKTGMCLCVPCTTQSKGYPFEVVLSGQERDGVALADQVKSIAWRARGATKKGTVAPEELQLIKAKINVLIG

B1: MazE (E. coli antitoxin) (natural protein, UniProt P0AE72 1-82, looked up)
chain: MIHSSVKRWGNSPAVRIPATLMQALNLNIDDEVKIDLVDGKLIIEPVRKEPVFTLAELVNDITPENLHENIDWGEPKDKEVW
notes: also called full-length MazE; the antitoxin
With B1 the Kd [1] was 3.9 ± 0.7 nM and the “IC50 of inhibition of His6-MazF (0.75 μM) cleavage of a fluorescence-suppressed DNA–RNA chimeric substrate (0.5 μM)” value [2] was 330 nM.
